Structures can show the parent of a compound that is named as a salt.
How the values were obtained:
human NTCP [1] = target: T1, human NTCP (Homo sapiens, UniProt Q14973); experiment: Screening taurocholate uptake assay (96-well, [14C]taurocholate, 10 µM drug); conditions: for remaining activity at 10 µM: 10 min, read-out: %NTCP activity
T1 sequence (Q14973 1-349): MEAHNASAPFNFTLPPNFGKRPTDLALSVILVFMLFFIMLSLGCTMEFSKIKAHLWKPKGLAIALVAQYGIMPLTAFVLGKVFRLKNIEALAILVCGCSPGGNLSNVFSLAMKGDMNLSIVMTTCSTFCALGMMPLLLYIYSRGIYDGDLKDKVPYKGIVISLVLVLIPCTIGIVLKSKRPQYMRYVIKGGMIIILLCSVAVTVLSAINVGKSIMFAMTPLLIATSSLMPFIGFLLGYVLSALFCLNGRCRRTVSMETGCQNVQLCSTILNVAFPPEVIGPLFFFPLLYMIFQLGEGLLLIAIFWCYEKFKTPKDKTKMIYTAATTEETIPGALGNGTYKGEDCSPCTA

human NTCP [2] = target: T1, human NTCP; experiment: Screening fluorescent competitive Myrcludex B-FITC binding assay (96-well, 10 µM drug); conditions: for remaining activity at 10 µM: 0.5 h, read-out: %NTCP binding; for B-score binding assay: screening Myrcludex B-FITC binding, 10 µM drug

remaining activity at 10 µM (human NTCP [1]) [%] | remaining activity at 10 µM (human NTCP [2]) [%] | B-score binding assay (human NTCP [2]) | Compound | %NTCP activity (human NTCP [1]) [%] | %NTCP binding (human NTCP [2]) [%]
– | – | – | COc1ccc2cc([C@@H](C)C(=O)[O-])ccc2c1.[Na+] [(R) -Naproxen sodium salt] | 96.7204 | 82.4935
131 | 71.4 | – | C=CCOc1ccccc1OCC(O)CNC(C)C (stereo not shown) [Oxprenolol hydrochloride] | – | –
55.2 | 78.6 | -0.123 | CN1C(C(=O)Nc2ccccn2)=C(O)c2sccc2S1(=O)=O [Tenoxicam] | – | –
98.3 | 111 | – | COc1ccc2cc([C@H](C)C(=O)O)ccc2c1 [Naproxen] | – | –
109 | 84.4 | – | Cc1ncc(C[n+]2csc(CCO)c2C)c(N)n1 [Thiamine hydrochloride] | – | –
51.7 | 58.2 | – | Nc1c2c(nc3ccccc13)CCCC2 [Tacrine hydrochloride] | – | –
54.4 | 49.3 | – | CNCCCC12CCC(c3ccccc31)c1ccccc12 [Maprotiline hydrochloride] | – | –
46.4 | 78.9 | – | CCCc1cc(=O)[nH]c(=S)[nH]1 [Propylthiouracil] | – | –
61.3 | 91.9 | – | NC(N)=Nc1nc(CSCCC(N)=NS(N)(=O)=O)cs1 [Famotidine] | – | –
62.1 | 101 | – | Cn1cnc([N+](=O)[O-])c1Sc1ncnc2nc[nH]c12 [Azathioprine] | – | –
– | – | – | CNCC[C@@H](Oc1cccc2ccccc12)c1cccs1.Cl [(R)-Duloxetine hydrochloride] | 92.2049 | 91.6635
61.5 | 66.1 | – | CN1CCCCC1CCN1c2ccccc2Sc2ccc([S+](C)[O-])cc21 (stereo not shown) [Mesoridazine besylate] | – | –
40.4 | 87.2 | 0.381 | Cc1cccc(C)c1OCC(C)N (stereo not shown) [Mexiletine hydrochloride] | – | –
76.5 | 96.2 | – | CC1CS(=O)(=O)CCN1/N=C/c1ccc([N+](=O)[O-])o1 (stereo not shown) [Nifurtimox] | – | –
123 | 86.6 | – | c1ccc([C@H]2CN3CCSC3=N2)cc1 [Levamisole hydrochloride] | – | –
88 | 65.9 | -0.195 | CC(C)NCC(O)COc1ccc(CCOCC2CC2)cc1 (stereo not shown) [Betaxolol hydrochloride] | – | –

Compound | remaining activity at 10 µM (human NTCP [1]) [%] | remaining activity at 10 µM (human NTCP [2]) [%] | B-score binding assay (human NTCP [2]) | %NTCP activity (human NTCP [1]) [%] | %NTCP binding (human NTCP [2]) [%]
NNc1nncc2ccccc12 [Hydralazine hydrochloride] | 113 | 67.2 | 2.175 | – | –
CNCCC=C1c2ccccc2CCc2ccccc21 [Nortriptyline hydrochloride] | 30.5 | 94.2 | – | – | –
Clc1cccc(Cl)c1N=C1NCCN1 [Clonidine hydrochloride] | 52.8 | 75.4 | -0.588 | – | –
